Screens (PubChem)
The entries come from a sample that favours hits as a whole.
GIV Gai3 FP = inhibitors of GIV GBA-motif binding to rat Galpha-i3; P08753; Galpha-i3/FITC-GIV peptide fluorescence polarization, 90 min; hits give low values; scaled: aluminum fluoride 0%, vehicle 100%; percent of control (FP), % (test concentration not listed); actives 0.42% (n = 210,000); AID 1224905;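 active = replicate mean at 85% of control or lower, very high polarization wells dropped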;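 also: wells of about 15 µL received 100 nL stock; the first replicate is given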
HCMV NEC inh = inhibitors of HCMV UL50-UL53 nuclear egress complex interaction. HTRF UL50-UL53 interaction, normalized percent inhibition. inhibition, % (no concentration beside the values). hit rate 0.15% among 190,000. AID 1918969; in the data active means inhibition above about 27%, passing the limit was not always enough
GIV-Gai FP conf = GIV-Galpha-i3 inhibition, FP confirmation; FITC-GIV peptide binding to Galphai3, fluorescence polarization; stronger effect = lower value; shares compounds with GIV Gai3 FP; hit rate 38% among 580; fluorescence polarization, mP at 100 µM; AID 1259350;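 active means inhibition score of 15 or more, meaning 100 minus mean polarization as percent of control over three replicates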
GIV-Gai AS conf = confirmation of inhibitors of GIV binding to human Galpha-i3. shares compounds with GIV Gai3 FP. AlphaScreen Galphai3-GIV binding, purified proteins, 90 min; stronger effect = lower value. AlphaScreen counts at 100 µM. hit rate 39% among 580;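 active means inhibition score at or above a set limit, where the score is 100 minus the three-replicate mean percent of control signal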
* = called active by the depositor; . = no result.

[1] COC(=O)c1ccc(NC(=O)c2nn(C)c3c2CS(=O)(=O)c2ccccc2-3)cc1
[2] Cn1nc(C(=O)Nc2ccc(F)cc2)c2c1-c1ccccc1S(=O)(=O)C2
[3] COC(=O)C1=C(O)/C(=C\c2ccc(CNS(=O)(=O)c3ccc(Br)cc3)o2)N=C1C
[4] O=C(Cn1ccc2cc(S(=O)(=O)N3CCCC3)ccc21)NCc1cccc(Cl)c1
[5] CCC(C(=O)Nc1nnc(C2CC2)s1)c1ccccc1 (configuration not stated)
[6] Cc1ccc(-c2csc(-c3c(N)c(C(=O)c4ccc5c(c4)OCO5)n4ccccc34)n2)cc1C
entry no. | 1 | 2 | 3 | 4 | 5 | 6
GIV Gai3 FP | 86 | 104 | 128 | 98 | 108 | 89
HCMV NEC inh | -16 | 0 | -81 | 6 | 2 | -16
GIV-Gai FP conf | 83 | . | . | . | . | .
GIV-Gai AS conf | 37898 | . | . | . | . | .

[7] Nc1c(-c2nc(-c3ccc(F)cc3)cs2)c2ccccn2c1C(=O)c1ccc2c(c1)OCO2
[8] Cc1ccc(CNc2ccc(O)cc2)s1
[9] Oc1ccc(NCc2cccs2)cc1
[10] Cn1c(=O)c(C(=O)CS(=O)(=O)O)c2c3c(c(Br)ccc31)C(=O)c1ccccc1-2
[11] CC(=O)c1c2c3c(c(Br)ccc3n(C)c1=O)C(=O)c1ccccc1-2
[12] CCCn1c(NCc2ccccc2O)nc2ccccc21
entry no. | 7 | 8 | 9 | 10 | 11 | 12
GIV Gai3 FP | 75* | 75* | 104 | 84* | 111 | 100
HCMV NEC inh | -18 | 21 | -10 | . | . | -22
GIV-Gai FP conf | 80 | 50* | . | 62 | . | .
GIV-Gai AS conf | 34447 | 9116* | . | 5202* | . | .

[13] CCCCC1(COC(=O)c2ccc(OC)cc2)C(=O)N(c2ccccc2)N(c2ccccc2)C1=O
[14] COc1ccc(Nc2nc3ccccc3nc2NS(=O)(=O)c2ccc(C)cc2)c(OC)c1
[15] COc1ccc2nc(NS(=O)(=O)c3ccc(C)cc3)c(Nc3cc(Cl)ccc3OC)nc2c1
[16] O=C(/C=C/c1ccccc1)/C=C/c1ccco1
[17] O=C(/C=C/c1ccco1)/C=C/c1ccco1
[18] Cn1c(-c2ccccc2)c(/C=N/NC(=O)c2cccs2)c2ccccc21
entry no. | 13 | 14 | 15 | 16 | 17 | 18
GIV Gai3 FP | 108 | 39* | 230 | 120 | 45* | .
HCMV NEC inh | -42 | -21 | -10 | 10 | . | -25
GIV-Gai FP conf | . | 81 | . | . | 61 | .
GIV-Gai AS conf | . | 33344 | . | . | 42048 | .

[19] Cn1c(-c2ccccc2)c(/C=C2/C(=O)Oc3ccccc3C2=O)c2ccccc21
[20] COc1ccc(/C=C(/C#N)S(=O)(=O)C2CCCCC2)cc1
[21] Cc1ccc(C)n1C1CCCCC1
[22] Cn1nc(C(=O)N2CCN(c3ccc(Cl)cc3)CC2)c2c1-c1ccccc1SC2
[23] Cc1ccc2c(c1)-c1c(c(C(=O)N3CCN(c4cc(C)ccc4C)CC3)nn1C)CS2
[24] Cc1cccc(NC(=S)N2CCCCC2C)c1 (configuration not stated)
entry no. | 19 | 20 | 21 | 22 | 23 | 24
GIV Gai3 FP | 44* | . | . | 100 | 42* | .
HCMV NEC inh | . | -64 | -4 | -16 | . | -6
GIV-Gai FP conf | 66 | . | . | . | 36* | .
GIV-Gai AS conf | 25749 | . | . | . | 26353 | .

[25] Fc1ccc(NC(=S)N2CCCCC2)cc1
[26] S=C(Nc1ccc2nsnc2c1)N1CCCC1
[27] COc1cccc(NC(=O)c2ccc3nsnc3c2)c1
[28] CCN(CC)C(=S)Nc1ccc2nsnc2c1
[29] CC(=O)N1CCCSc2ccc(S(=O)(=O)N3CCC(N(C)C(C)C)CC3)cc21
[30] CCOc1cc(CN2CCCC2c2cc(C(C)C)no2)ccc1OC(C)C (configuration not stated)
entry no. | 25 | 26 | 27 | 28 | 29 | 30
GIV Gai3 FP | 102 | 81* | 101 | 66* | 109 | 103
HCMV NEC inh | -3 | . | -128 | . | 6 | .
GIV-Gai FP conf | . | 23* | . | 27* | . | .
GIV-Gai AS conf | . | 11675* | . | 10807* | . | .

Next section, starting with the last six of the part before.
[25] Fc1ccc(NC(=S)N2CCCCC2)cc1
[26] S=C(Nc1ccc2nsnc2c1)N1CCCC1
[27] COc1cccc(NC(=O)c2ccc3nsnc3c2)c1
[28] CCN(CC)C(=S)Nc1ccc2nsnc2c1
[29] CC(=O)N1CCCSc2ccc(S(=O)(=O)N3CCC(N(C)C(C)C)CC3)cc21
[30] CCOc1cc(CN2CCCC2c2cc(C(C)C)no2)ccc1OC(C)C (configuration not stated)
[31] Fc1ccc(CNC2CC2)cc1
[32] Cc1ccc(C(=O)COC(=O)c2ccccc2N2C(=O)C3C4C=CC(C4)C3C2=O)cc1[N+](=O)[O-] (configuration not stated)
[33] CC1=NN(c2ccccc2)C(=O)C1(O)C1C(=O)c2ccccc2C1=O (configuration not stated)
[34] CC1=NN(c2ccccc2)C(=O)C1(C)N (configuration not stated)
[35] C/C(=N\N)c1ccc2ccccc2c1
[36] O=C(COCc1cc(-c2ccco2)on1)Nc1cccnc1
entry no. | 25 | 26 | 27 | 28 | 29 | 30 | 31 | 32 | 33 | 34 | 35 | 36
GIV Gai3 FP | 102 | 81* | 101 | 66* | 109 | 103 | . | 99 | 74* | 104 | . | 111
HCMV NEC inh | -3 | . | -128 | . | 6 | . | -7 | . | 36 | -2 | -3 | -12
GIV-Gai FP conf | . | 23* | . | 27* | . | . | . | . | 56* | . | . | .
GIV-Gai AS conf | . | 11675* | . | 10807* | . | . | . | . | 4583* | . | . | .

(cont.)
| entry | compound | GIV Gai3 FP | HCMV NEC inh | GIV-Gai FP conf | GIV-Gai AS conf |
| --- | --- | --- | --- | --- | --- |
| 37 | O=[N+]([O-])c1ccc(N2N=C(c3ccccc3)CC2c2ccc(O)cc2)cc1 (configuration not stated) | 105 | -3 | . | . |
| 38 | CN1C(=O)/C(=C\c2ccc(-c3ccc(S(N)(=O)=O)cc3)o2)c2ccccc21 | . | -34 | . | . |
| 39 | CC1(C)OC(=O)C(=Cc2ccc(-c3ccc(S(N)(=O)=O)cc3)o2)C(=O)O1 | 87 | -42 | 67 | 4423* |
| 40 | Cc1cc(OCc2nc(CC(=O)NC3CC3)cs2)ccc1Cl | 123 | -13 | . | . |
| 41 | Cc1cc(OCc2nc(CC(=O)NCC(C)C)cs2)ccc1Cl | 96 | -19 | 69 | 41855 |
| 42 | COc1ccc(/C=c2\sc3nc(-c4ccccc4)c(-c4ccccc4)n3c2=O)cc1OC | 106 | . | . | . |
| 43 | COc1ccc(/C=c2\sc3nc(-c4ccccc4)c(-c4ccccc4)n3c2=O)c(OC)c1OC | 88 | . | 68 | 45907 |
| 44 | Cc1ccc(OCC(O)CNC2Cc3ccccc3C2)cc1C (configuration not stated) | 104 | -12 | . | . |
| 45 | CCN(CCN(C)C)c1ncc(NS(=O)(=O)CC)cc1C(=O)O | 71* | -24 | 34* | 21018* |
| 46 | CCCCN(CC)c1ncc(NS(=O)(=O)CC)cc1C(=O)O | 110 | -39 | . | . |
| 47 | Cc1ccc(S(=O)(=O)N2c3ccccc3C3N(c4ccc(SCC(=O)O)cc4)C2c2ccccc2N3S(=O)(=O)c2ccc(C)cc2)cc1 | 110 | . | . | . |
| 48 | CCOC(=O)C1=C(C)N(CCOC)C(=O)/C1=C\c1ccc(N(C)C)cc1 | 64* | -81 | 85 | 19702* |
| 49 | CCN1C(=O)/C(=C\c2ccc(OC)cc2)C(C(=O)OC)=C1C | . | -12 | . | . |
| 50 | COc1ccc(-c2cc(=O)oc3c(C)c(O)c(CN4CCCC(C)C4)cc23)cc1 (configuration not stated) | 106 | -58 | . | . |
| 51 | Cc1ccc(NC(=O)c2ccc3[nH]c(C)cc(=O)c3c2)cc1 | 86 | -1 | 80 | 29554 |
| 52 | CCOc1ccc(NC(=O)c2ccc3[nH]c(C)cc(=O)c3c2)cc1 | 98 | -7 | . | . |
| 53 | O=C(/C=C/Sc1ccccn1)c1ccccc1 | 86 | -10 | 63 | 40583 |
| 54 | O=C(/C=C/Sc1nc2ccccc2o1)c1ccccc1 | 101 | -22 | . | . |
| 55 | CCOc1ccc(C(=O)Nc2cccc(-c3nc4cc(C)cc(C)c4o3)c2)cc1Br | 104 | . | . | . |
| 56 | O=C(O)CCC(=O)Nc1ccccc1O | 141 | -7 | . | . |
| 57 | CCOC(=O)c1ccc(NC(=O)Nc2cccc(OCc3cc(=O)n4ccc(C)cc4n3)c2)cc1 | 85* | . | 78 | 34616 |
| 58 | COc1ccc(C)cc1NC(=O)Nc1cccc(OCc2cc(=O)n3ccc(C)cc3n2)c1 | 93 | . | . | . |
| 59 | CC(=O)c1c(C)oc2ccc(N(C(=O)c3ccc([N+](=O)[O-])cc3)S(=O)(=O)c3ccc(C)cc3)cc12 | 108 | . | . | . |
| 60 | Cc1c(Nc2nc3nonc3nc2Nc2ccc(F)cc2)c(=O)n(-c2ccccc2)n1C | 106 | . | . | . |
| 61 | Cc1c(Nc2nc3nonc3nc2Nc2ccccc2F)c(=O)n(-c2ccccc2)n1C | 126 | -7 | 68 | 44712 |
| 62 | CCN1C(=O)c2cccc3c(NC(=O)c4ccc(S(=O)(=O)N5CCCC5)cc4)ccc1c23 | 89 | . | 79 | 47241 |
| 63 | CCN1C(=O)c2cccc3c(NC(=S)NC(=O)c4ccc(S(=O)(=O)N5CCCC5)cc4)ccc1c23 | 107 | . | . | . |
